Test results reported in patent US9956222B2, “Quinazoline derivative as tyrosine-kinase inhibitor, preparation method therefor and application thereof” (Xuanzhu Pharma Co., Ltd., priority 2011, dated 2018).

Chains of the proteins cited; added tags and fusions are not shown. Residues count along the entry.
UniProt Q15303, 26-1308: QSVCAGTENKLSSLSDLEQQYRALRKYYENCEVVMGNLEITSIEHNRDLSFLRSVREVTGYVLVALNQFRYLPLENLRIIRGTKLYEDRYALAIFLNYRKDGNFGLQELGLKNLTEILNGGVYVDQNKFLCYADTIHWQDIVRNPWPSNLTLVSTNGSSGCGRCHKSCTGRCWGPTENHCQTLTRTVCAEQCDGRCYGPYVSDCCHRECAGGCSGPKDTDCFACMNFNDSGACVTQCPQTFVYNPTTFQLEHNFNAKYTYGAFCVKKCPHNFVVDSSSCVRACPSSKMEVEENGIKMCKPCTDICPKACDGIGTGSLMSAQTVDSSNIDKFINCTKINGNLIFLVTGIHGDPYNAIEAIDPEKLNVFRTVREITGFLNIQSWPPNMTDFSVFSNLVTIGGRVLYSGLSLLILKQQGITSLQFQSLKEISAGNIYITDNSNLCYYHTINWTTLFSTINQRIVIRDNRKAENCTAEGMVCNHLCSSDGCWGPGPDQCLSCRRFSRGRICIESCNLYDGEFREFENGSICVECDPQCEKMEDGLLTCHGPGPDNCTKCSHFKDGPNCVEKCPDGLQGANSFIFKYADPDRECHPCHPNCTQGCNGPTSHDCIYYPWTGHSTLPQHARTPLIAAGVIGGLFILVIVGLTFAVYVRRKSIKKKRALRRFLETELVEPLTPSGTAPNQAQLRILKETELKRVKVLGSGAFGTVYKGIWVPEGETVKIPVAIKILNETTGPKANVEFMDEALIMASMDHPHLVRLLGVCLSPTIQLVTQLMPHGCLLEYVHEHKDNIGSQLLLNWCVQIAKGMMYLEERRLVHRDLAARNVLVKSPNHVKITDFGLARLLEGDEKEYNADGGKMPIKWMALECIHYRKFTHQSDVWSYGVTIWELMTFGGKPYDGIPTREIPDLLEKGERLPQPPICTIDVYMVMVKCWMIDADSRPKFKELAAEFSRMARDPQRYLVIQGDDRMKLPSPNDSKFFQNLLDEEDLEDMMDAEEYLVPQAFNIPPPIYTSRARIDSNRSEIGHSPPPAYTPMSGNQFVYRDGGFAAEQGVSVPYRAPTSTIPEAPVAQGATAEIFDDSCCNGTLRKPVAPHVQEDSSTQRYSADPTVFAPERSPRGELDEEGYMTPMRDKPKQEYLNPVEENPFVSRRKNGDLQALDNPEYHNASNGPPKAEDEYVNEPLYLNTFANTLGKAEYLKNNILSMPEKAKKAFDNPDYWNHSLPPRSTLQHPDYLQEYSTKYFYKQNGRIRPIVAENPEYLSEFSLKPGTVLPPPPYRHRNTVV
UniProt P04626, 23-1255: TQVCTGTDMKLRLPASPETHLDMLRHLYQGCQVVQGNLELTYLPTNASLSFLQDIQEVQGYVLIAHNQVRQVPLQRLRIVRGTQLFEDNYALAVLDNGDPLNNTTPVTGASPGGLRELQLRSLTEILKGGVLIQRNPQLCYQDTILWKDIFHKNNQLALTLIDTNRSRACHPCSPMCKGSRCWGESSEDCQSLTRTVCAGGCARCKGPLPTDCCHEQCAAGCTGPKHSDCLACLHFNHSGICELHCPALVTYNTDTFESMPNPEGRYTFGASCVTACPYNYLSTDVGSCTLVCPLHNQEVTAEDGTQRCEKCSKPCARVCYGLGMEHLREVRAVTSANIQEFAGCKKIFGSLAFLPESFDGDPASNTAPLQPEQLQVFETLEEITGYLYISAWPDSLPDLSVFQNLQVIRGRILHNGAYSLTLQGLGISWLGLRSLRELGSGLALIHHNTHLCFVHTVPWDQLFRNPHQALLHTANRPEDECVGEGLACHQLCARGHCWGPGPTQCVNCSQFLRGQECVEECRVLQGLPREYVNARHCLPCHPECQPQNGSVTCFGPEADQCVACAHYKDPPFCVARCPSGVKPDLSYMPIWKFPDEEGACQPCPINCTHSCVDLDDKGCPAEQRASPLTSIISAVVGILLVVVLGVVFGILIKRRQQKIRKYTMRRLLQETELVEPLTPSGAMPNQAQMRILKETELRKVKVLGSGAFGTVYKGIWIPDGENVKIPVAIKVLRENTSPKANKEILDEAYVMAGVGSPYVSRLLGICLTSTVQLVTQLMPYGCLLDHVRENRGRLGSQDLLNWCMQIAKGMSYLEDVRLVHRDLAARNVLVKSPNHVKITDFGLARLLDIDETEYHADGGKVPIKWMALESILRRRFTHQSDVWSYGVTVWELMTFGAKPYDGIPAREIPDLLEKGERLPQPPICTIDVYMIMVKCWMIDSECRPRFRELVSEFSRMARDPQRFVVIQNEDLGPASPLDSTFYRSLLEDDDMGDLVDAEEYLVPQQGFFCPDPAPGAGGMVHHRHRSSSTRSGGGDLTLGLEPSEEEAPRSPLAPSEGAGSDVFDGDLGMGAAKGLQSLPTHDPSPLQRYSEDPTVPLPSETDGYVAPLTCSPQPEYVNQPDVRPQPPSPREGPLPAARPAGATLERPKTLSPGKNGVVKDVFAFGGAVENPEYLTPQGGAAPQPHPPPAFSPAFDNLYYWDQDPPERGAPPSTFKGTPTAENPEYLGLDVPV

Assays:
[1] = biological target: T1, HER4: human epidermal growth factor receptor 4 (Homo sapiens, UniProt Q15303); assay: In vitro enzyme inhibitory activity (Caliper, FAM labeled peptide); assay type: biochemical; settings: HER4 kinase, 28° C., 1 h
T1 construct: purchased Carna

[2] = biological target: T2, HER2: human epidermal growth factor receptor 2 (Homo sapiens, UniProt P04626); assay: as above; assay type: biochemical; settings: HER2 kinase, 28° C., 1 h
T2 construct: purchased Carna

- IC50 [1]: 1.7 nM
- IC50 [2]: 11 nM
SMILES: COc1cc2ncnc(Nc3ccc(F)c(Cl)c3)c2cc1NC(=O)/C=C/CN1CCCCC1 [PF-00299804, reference compound]
